Protein sequences, listed by entry. Tags and fused reporters are not part of them. Residues count along the entry.
UniProt P10398, 274-606 G300S/Y301D/Y302D: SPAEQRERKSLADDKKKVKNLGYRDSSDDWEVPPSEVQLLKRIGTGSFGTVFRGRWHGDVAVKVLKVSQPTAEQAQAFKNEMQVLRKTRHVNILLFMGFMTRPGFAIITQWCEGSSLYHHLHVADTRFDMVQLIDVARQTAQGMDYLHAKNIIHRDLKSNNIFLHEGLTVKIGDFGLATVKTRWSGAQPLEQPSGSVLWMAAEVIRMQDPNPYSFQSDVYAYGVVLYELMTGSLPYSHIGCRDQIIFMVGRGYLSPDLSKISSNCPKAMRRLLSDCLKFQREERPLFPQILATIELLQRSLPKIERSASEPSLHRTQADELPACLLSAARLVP
UniProt P10398, 282-579: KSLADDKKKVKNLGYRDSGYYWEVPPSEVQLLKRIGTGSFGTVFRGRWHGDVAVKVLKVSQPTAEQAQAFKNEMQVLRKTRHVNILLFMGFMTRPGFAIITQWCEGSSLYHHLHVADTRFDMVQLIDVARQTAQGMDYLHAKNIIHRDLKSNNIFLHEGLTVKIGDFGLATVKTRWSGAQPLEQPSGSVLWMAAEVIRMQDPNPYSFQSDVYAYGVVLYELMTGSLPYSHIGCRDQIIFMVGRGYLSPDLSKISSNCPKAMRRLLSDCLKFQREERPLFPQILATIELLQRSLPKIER

In doi:10.64898/2025.12.15.694443v1 (biorxiv, 2025):

Columns and labels:
Assay in all cases: biochemical
[1] = biological target: T1, ARAF^SSDD (ARAF^SSDD/MEK1) (Homo sapiens, UniProt P10398, G300S/Y301D/Y302D)
[2] = biological target: T2, ARAF monomer complex (ARAF/MEK1 SASA) (Homo sapiens, UniProt P10398)
[3] = biological target: T1, ARAF^SSDD (ARAF^SSDD/MEK1); remark: listed apart in the source
[4] = biological target: T2, ARAF monomer complex (ARAF/MEK1 SASA); remark: listed apart in the source

AC50 [1]: 129 ± 90.3 nM
AC50 [2]: 286 ± 168 nM
IC50 [3]: > 10000 nM
IC50 [4]: > 10000 nM
SMILES: OCCn1cc(-c2ccc3c(c2)CC/C3=N\O)c(-c2ccncc2)n1 [GDC0879]
